# The list shows a part of the results, in another mix than the full data. Active and inactive are the calls of the source. Rule as the data show it: active = inhibition above about 40%.
# The chains behind the UniProt entries cited, without tags or fusion partners.
# UniProt Q16548, whole entry: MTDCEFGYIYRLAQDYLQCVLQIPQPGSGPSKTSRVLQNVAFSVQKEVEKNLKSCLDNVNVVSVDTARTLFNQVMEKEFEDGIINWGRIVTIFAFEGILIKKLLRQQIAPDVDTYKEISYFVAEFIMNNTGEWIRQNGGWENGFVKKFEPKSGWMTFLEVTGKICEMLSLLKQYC
# Molecular target: Bcl-2-related protein A1 (Homo sapiens) (UniProt Q16548)
# Experiment: inhibitors of Bim binding to Bfl-1, primary screen, biochemical, multiplexed, bead-based flow cytometry (AID 1008);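 also: 0% = wells without compound plus tracer and 100% = blocker peptide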
# Details: Bim-Bfl-1 binding inhibition, at 10 µM, hits give high values
row,SMILES,inhibition
1,CC(C)c1ccc(NC2CCN(C(=O)OC(C)(C)C)CC2)cc1,inactive: -2%
2,CN(C)c1cccc(C(=O)NCC2(N3CCCCC3)CCCCC2)c1,inactive: 6%
3,COc1ccc(CN(CCCl)CCCl)cc1Cl,inactive: -6%
4,O=C(NCC1(N2CCOCC2)CCCCC1)c1cc(=O)[nH]c2ccccc12,inactive: -7%
5,CN1CCN(CCOC(=O)C(O)(c2ccccc2)c2ccccc2)CC1,inactive: -3%
6,COc1ccc(NC2CCN(C(=O)OC(C)(C)C)CC2)cc1,inactive: 1%
7,N#CC1(Nc2ccccc2)CCN(CCc2ccccc2)CC1,inactive: -2%
8,O=C(NCC1(N2CCCCC2)CCCCC1)c1cccc([N+](=O)[O-])c1,inactive: -1%
9,COc1ccc(NC2CCN(CCc3ccccc3)CC2)c(OC)c1,inactive: -15%
10,O=C(NCC1(N2CCOCC2)CCCCC1)c1cc2ccccc2o1,inactive: 12%
11,O=C(OC1CN2CCC1CC2)C1c2ccccc2Oc2ccccc21 (stereo not given),inactive: -3%
12,CCOC(=O)N1CCC(Nc2ccc(OC)cc2)CC1,inactive: -4%
13,COc1ccc(C(=O)NCC2(N3CCCCC3)CCCCC2)c(OC)c1OC,inactive: -3%
14,COc1cc(OC)cc(C(=O)NCC2(N3CCOCC3)CCCCC2)c1,inactive: -3%
15,CCC(CO)(C(=O)OC1CN2CCC1CC2)c1ccccc1 (stereo not given),inactive: -9%
16,CCOc1ncccc1C(=O)NCC1(N2CCOCC2)CCCCC1,inactive: 0%
17,CC(C)(C)OC(=O)N1CCC(Nc2ccccc2)CC1,inactive: -1%
18,CCN1CCC(Nc2cccc(F)c2)CC1,inactive: -2%
19,CN(C)c1ccc(C(=O)NCC2(N3CCCCC3)CCCCC2)cc1,inactive: -1%
20,Fc1ccccc1NC1CCN(Cc2ccccc2)CC1,inactive: 0%
21,c1ccc(CN2CCC(Nc3ccccc3)CC2)cc1,inactive: -12%
22,N#Cc1ccc(C(=O)NCC2(N3CCCCC3)CCCCC2)cc1,inactive: -4%
23,N/C(=N\O)c1c(N)no[n+]1[O-],inactive: -3%
24,O=C(OC1CN2CCC1CC2)C1c2ccccc2C=Cc2ccccc21 (stereo not given),inactive: -3%
25,COc1ccc(C(=O)NCC2(N3CCOCC3)CCCCC2)cc1OC,inactive: -3%
